PubChem BioAssay (NCI)
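Each compound was tested at five concentrations against cells in 96-well plates for 48 hours. GI50: concentration for 50% inhibition of growth. Definition used: TGI = concentration required for complete inhibition of growth.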

Key:
Experiment in all cases: NCI tumour cell line growth inhibition, 48 h
SK-MEL-5 melanoma = tested on: SK-MEL-5 melanoma
HCT-15 colon = tested on: HCT-15 colon
HCT-116 colon = tested on: HCT-116 colon
K-562 leukemia = tested on: K-562 leukemia
MDA-MB-435 = tested on: MDA-MB-435
SNB-75 CNS = tested on: SNB-75 CNS
MCF7 breast = tested on: MCF7 breast
CCRF-CEM leukemia = tested on: CCRF-CEM leukemia
OVCAR-3 ovarian = tested on: OVCAR-3 ovarian
LOX IMVI melanoma = tested on: LOX IMVI melanoma
SR leukemia = tested on: SR leukemia
A498 renal = tested on: A498 renal
MDA-N = tested on: MDA-N
HS 578T breast = tested on: HS 578T breast
RXF 393 renal = tested on: RXF 393 renal
MOLT-4 leukemia = tested on: MOLT-4 leukemia
UACC-62 melanoma = tested on: UACC-62 melanoma
KM12 colon = tested on: KM12 colon
T-47D breast = tested on: T-47D breast
BT-549 breast = tested on: BT-549 breast
RPMI-8226 leukemia = tested on: RPMI-8226 leukemia
NCI-H522 lung = tested on: NCI-H522 lung
NCI/ADR-RES ovarian = tested on: NCI/ADR-RES ovarian
HL-60(TB) leukemia = tested on: HL-60(TB) leukemia
SW-620 colon = tested on: SW-620 colon

`C[C@H](O)[C@H]1/C=C/C=C\C(=O)O[C@@H]2C[C@H]3O[C@@H]4[C@@H]5O[C@]5(C)CCC4(COC(=O)[C@H]4O[C@]4(C)[C@@H](O)CO1)[C@]2(C)[C@]31CO1` (some centres not stated) gave a TGI (SK-MEL-5 melanoma) of 0.0169 µM, a TGI (HCT-15 colon) of 0.571 µM and a TGI (HCT-116 colon) of 0.0166 µM. The GI50 (K-562 leukemia) was < 0.01 µM, the TGI (K-562 leukemia) was 23.8 µM and the GI50 (MDA-MB-435) was 0.0222 µM. For the same compound, the TGI (MDA-MB-435) was 0.111 µM, the TGI (SNB-75 CNS) was 0.101 µM and the GI50 (MCF7 breast) was 0.0134 µM. It also gave a TGI (MCF7 breast) of 0.239 µM, a GI50 (CCRF-CEM leukemia) of 0.0358 µM and a TGI (CCRF-CEM leukemia) of 0.24 µM. The TGI (OVCAR-3 ovarian) was 1.33 µM, the TGI (LOX IMVI melanoma) was 0.0155 µM and the GI50 (SR leukemia) was 0.0125 µM. The TGI (SR leukemia) was 0.215 µM, the TGI (A498 renal) was 0.438 µM and the GI50 (MDA-N) was 0.0169 µM. The TGI (MDA-N) was 0.0612 µM, the TGI (HS 578T breast) was 0.0441 µM and the TGI (RXF 393 renal) was 0.037 µM. It also gave a TGI (MOLT-4 leukemia) of 0.215 µM, a TGI (UACC-62 melanoma) of 0.152 µM and a TGI (KM12 colon) of 0.239 µM. For the same compound, the TGI (T-47D breast) was 0.0717 µM, the TGI (BT-549 breast) was 0.0526 µM and the TGI (RPMI-8226 leukemia) was 0.269 µM. The TGI (NCI-H522 lung) was 0.011 µM, the GI50 (NCI/ADR-RES ovarian) was 1.74 µM and the TGI (NCI/ADR-RES ovarian) was 19.5 µM. For the same compound, the TGI (HL-60(TB) leukemia) was 0.219 µM and the TGI (SW-620 colon) was 3.26 µM.
